Assay results from ChEMBL document CHEMBL3407371, “Elimination of a cholecystokinin receptor agonist 'trigger' in an effort to develop positive allosteric modulators without intrinsic agonist activity” (Bioorg Med Chem Lett, 2015).
pEC50, pIC50: −log10 of the molar value.

Protein sequences, listed by entry. Tags and fused reporters are not part of them.
UniProt P32238, whole entry: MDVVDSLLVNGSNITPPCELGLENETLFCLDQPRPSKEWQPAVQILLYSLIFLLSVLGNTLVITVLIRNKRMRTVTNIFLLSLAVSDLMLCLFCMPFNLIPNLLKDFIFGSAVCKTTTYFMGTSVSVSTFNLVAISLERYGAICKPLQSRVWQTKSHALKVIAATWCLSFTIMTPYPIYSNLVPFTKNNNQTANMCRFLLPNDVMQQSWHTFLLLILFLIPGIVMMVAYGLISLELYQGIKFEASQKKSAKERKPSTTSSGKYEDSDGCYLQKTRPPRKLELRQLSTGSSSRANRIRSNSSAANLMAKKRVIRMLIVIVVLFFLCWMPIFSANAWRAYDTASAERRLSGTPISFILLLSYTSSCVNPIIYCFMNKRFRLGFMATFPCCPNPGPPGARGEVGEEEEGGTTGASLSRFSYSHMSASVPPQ
UniProt P32238, whole entry T117V/T118S: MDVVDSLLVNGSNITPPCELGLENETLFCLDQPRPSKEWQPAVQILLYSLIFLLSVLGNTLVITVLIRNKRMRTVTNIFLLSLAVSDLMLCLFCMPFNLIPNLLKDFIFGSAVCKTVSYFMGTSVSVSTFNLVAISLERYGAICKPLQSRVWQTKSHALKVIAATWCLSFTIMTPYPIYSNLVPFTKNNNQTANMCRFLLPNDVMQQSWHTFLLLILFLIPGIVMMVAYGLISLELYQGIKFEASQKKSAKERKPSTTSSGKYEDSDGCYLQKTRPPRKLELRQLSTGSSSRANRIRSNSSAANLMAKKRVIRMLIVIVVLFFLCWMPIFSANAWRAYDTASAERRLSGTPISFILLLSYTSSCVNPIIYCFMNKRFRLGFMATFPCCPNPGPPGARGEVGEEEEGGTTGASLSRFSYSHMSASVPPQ
UniProt P32238, whole entry L356H: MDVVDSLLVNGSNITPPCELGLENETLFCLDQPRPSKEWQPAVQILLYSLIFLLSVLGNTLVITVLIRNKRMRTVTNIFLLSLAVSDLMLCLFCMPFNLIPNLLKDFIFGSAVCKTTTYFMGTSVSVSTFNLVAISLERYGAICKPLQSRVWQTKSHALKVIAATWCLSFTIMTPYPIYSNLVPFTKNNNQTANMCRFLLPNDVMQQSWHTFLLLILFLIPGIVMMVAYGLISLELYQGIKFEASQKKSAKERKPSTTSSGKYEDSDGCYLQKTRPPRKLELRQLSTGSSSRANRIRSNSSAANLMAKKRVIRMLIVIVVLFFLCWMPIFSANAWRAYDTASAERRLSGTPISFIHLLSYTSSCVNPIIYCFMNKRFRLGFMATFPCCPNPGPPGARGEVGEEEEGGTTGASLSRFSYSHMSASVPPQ
UniProt P32238, whole entry N98T: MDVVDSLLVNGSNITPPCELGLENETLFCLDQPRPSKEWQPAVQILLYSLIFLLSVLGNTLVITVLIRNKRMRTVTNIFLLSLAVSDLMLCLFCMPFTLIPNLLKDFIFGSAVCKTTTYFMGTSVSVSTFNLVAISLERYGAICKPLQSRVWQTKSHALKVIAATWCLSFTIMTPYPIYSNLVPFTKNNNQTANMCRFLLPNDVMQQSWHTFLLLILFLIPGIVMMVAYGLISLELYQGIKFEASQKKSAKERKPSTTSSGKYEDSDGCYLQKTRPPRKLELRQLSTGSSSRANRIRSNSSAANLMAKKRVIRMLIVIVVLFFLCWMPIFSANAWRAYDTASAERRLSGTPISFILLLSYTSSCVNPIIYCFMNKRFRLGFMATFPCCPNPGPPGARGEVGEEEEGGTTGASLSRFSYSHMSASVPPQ

How the values were obtained:
[1] = molecular target: T1, Cholecystokinin receptor type A (Homo sapiens, UniProt P32238); type: cell-based, CHO
[2] = molecular target: T2, Gastrin/cholecystokinin type B receptor (Homo sapiens, UniProt P32239); type: cell-based, CHO
T2 sequence (P32239 whole entry): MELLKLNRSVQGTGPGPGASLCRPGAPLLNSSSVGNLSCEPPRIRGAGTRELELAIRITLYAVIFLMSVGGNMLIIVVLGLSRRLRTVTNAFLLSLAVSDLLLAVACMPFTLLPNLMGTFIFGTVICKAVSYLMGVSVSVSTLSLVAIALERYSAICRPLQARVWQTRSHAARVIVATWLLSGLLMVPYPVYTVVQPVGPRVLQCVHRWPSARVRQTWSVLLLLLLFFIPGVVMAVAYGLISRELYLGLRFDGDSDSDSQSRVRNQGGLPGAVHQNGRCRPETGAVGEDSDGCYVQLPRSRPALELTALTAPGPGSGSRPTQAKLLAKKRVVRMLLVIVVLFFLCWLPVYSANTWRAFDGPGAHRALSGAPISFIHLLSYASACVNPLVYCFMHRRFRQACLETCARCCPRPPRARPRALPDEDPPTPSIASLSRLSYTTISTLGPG

[3] = molecular target: T1, Cholecystokinin receptor type A; experiment: Activity at CCK1R (unknown origin) expressed in CHO cells assessed as stimulation of intracellular calcium responses; type: functional, cell-based
In short: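 Intact CHO cell lines stably expressing CCK1R or CCK2R; intracellular calcium measured after adding compound alone. […] Peak responses and EC50 values taken from concentration-response curves. Duplicate determinations, at least three independent experiments, means ± S.E.M.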

[4] = molecular target: T3, Cholecystokinin receptor type A (Homo sapiens, UniProt P32238, T117V/T118S); type: cell-based, CHO
[5] = molecular target: T1, Cholecystokinin receptor type A; type: cell-based; conditions: cho
[6] = molecular target: T4, Cholecystokinin receptor type A (Homo sapiens, UniProt P32238, L356H); type: cell-based, CHO
[7] = molecular target: Cholecystokinin receptor type A (Homo sapiens, UniProt P32238, N98T); type: cell-based, CHO
[8] = molecular target: T3, Cholecystokinin receptor type A; type: cell-based, CHO; remark: listed apart in the source
[9] = molecular target: T1, Cholecystokinin receptor type A; type: cell-based; conditions: cho; remark: listed apart in the source
[10] = molecular target: T4, Cholecystokinin receptor type A; type: cell-based, CHO; remark: listed apart in the source

Compound: O=C(CN1C(=O)C(NC(=O)Nc2ccccc2)C(=O)N(c2ccccc2)c2ccccc21)Nc1ccccc1 (stereo not given)
- pIC50 [1]: 6.27
- pIC50 [2]: 7.50
- pEC50 [3]: < 6.00
- pIC50 [4]: 6.59
- pIC50 [5]: < 6.00
- pIC50 [6]: 6.30
- pIC50 [7]: 6.89
- pIC50 [8]: 6.00
- pIC50 [9]: 6.50
- pIC50 [10]: 6.52
